This assay deals with anti-Fas monoclonal antibody HFE7A (produced by mouse-mouse hybridoma HFE7A, FERM BP-5828). Briefly: peptide (200 µg) preincubated with 0.25 µg HFE7A, binding to WR19L12a cells read by flow cytometry; D355-364 sample taken as 100% fluorescence. For orientation: In flow cytometry, cells or beads pass a laser one at a time.

Here are results for two substances from patent publication EP0909816A1.

For “P100 (from UniProt P25445 100-109) (peptide)”, the inhibition of binding between HFE7A and WR19L12a cells stood at 50%. Take “P110 (from UniProt P25445 110-119) (peptide)”: the inhibition of binding between HFE7A and WR19L12a cells was 60%.
